Results taken from patent US10544136B2, “Modulators of sphingosine phosphate receptors” (The Scripps Research Institute, priority 2008, dated 2020).
Where two headings read alike, the source gives them in different places.

Protein sequences, listed by entry. Tags and fused reporters are not part of them.
UniProt P21453, whole entry: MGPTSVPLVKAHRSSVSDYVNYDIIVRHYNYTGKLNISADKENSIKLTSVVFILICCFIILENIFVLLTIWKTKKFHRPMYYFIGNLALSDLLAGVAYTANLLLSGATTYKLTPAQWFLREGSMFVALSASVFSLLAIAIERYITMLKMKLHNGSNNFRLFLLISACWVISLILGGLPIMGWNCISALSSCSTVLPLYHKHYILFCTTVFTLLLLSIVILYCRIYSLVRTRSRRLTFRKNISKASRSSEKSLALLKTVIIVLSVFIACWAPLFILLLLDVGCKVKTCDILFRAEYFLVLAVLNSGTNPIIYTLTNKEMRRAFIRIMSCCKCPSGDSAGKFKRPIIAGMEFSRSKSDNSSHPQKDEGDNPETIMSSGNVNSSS
UniProt Q99500, whole entry: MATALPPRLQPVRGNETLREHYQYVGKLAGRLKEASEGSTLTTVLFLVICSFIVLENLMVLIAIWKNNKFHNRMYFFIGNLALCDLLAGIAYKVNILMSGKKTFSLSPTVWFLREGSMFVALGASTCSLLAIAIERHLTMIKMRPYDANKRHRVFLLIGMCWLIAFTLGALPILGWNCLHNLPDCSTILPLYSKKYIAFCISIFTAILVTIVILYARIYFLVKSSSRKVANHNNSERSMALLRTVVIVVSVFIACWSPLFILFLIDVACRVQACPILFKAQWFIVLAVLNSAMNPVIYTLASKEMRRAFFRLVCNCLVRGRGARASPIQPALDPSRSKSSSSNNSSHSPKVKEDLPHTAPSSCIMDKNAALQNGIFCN

Assays:
S1P1 = S1P1 (Homo sapiens (Human), UniProt P21453); assay: S1P1 agonist assay (Ec50 S1P1Ag); assay type: cell-based; details: read-out: Ec50 (S1P1Ag)
S1P3 = S1P3 (Homo sapiens (Human), UniProt Q99500); assay: S1P3 agonist assay (Ec50 S1P3Ag); details: read-out: Ec 50 (S1P3Ag)
mice = assay: Lymphopenia in mice; details: delivered by gavage
[1] = target: T1, GFP-tagged human S1P1 receptor (S1P1-GFP) (Homo sapiens (Human), UniProt P21453); assay: Microscopy imaging of ligand-mediated S1P1-GFP internalization in HEK-293 cells; details: HEK 293-S1P1-GFP cells
[2] = target: T1, GFP-tagged human S1P1 receptor (S1P1-GFP); assay: Immunoprecipitation/immunoblotting for ligand-stimulated S1P1-GFP polyubiquitination in HEK-293 cells; details: HEK 293-S1P1-GFP cells

| SMILES | EC50 (S1P1) | also measured |
| --- | --- | --- |
| COc1cc(-c2nc(-c3ccncc3C)no2)ccc1C | 0.0848 µM | – |
| COc1cc(-c2noc(-c3ccnc(F)c3)n2)ccc1C | 1.18 µM | – |
| COc1cc(OC)cc(-c2nc(-c3ccncc3)no2)c1 | 4.4 µM | – |
| CCOc1ccc(-c2nc(-c3cccc4[nH]cnc34)no2)cc1OCC | 0.0015 µM | EC50 (S1P3): 2300 nM |
| CCOc1ccc(-c2nc(-c3ccncc3C)no2)cc1OCC | – | lymphopenia (mice): did not induce lymphopenia; S1P1-GFP internalization [1]: robustly induces internalization; S1P1 polyubiquination [2]: robustly induces internalization and polyubiquination |
| CCOc1ccc(-c2nc(-c3cccc4[nH]cc(CNCCO)c34)no2)cc1OCC | 0.648 µM | – |
| CC(C)Cc1cc(-c2nc(-c3ccc(S(N)(=O)=O)cc3)no2)no1 | – | EC50 (S1P1; unit μM/uM): 19.7 µM |
| CCOc1ccc(-c2nc(-c3ccc(C(=O)Nc4ccncc4)cc3C)no2)cc1OCC | 0.0149 µM | – |
| CCOc1ccc(-c2nc(-c3ccc4[nH]c(C(F)(F)F)nc4c3)no2)cc1OCC | 0.0154 µM | – |
| CCOc1ccc(-c2nc(-c3cccnc3)no2)cc1OCC | 0.0088 µM | EC50 (S1P3): 5370 nM |
| COc1cc(-c2nc(-c3ccnc(N)c3)no2)ccc1C | 0.249 µM | – |
| Cc1ccc(-c2nc(-c3cccnc3)no2)cc1C(F)(F)F | 0.492 µM | – |
